Experimental data published in article PMC3392958, “Assay Format as a Critical Success Factor for Identification of Novel Inhibitor Chemotypes of Tissue-Nonspecific Alkaline Phosphatase from High-Throughput Screening” (Molecules, 2010).

Protein sequences, listed by entry. Tags and fused reporters are not part of them. Residues count along the entry.
UniProt P05187, 23-506 limits assumed: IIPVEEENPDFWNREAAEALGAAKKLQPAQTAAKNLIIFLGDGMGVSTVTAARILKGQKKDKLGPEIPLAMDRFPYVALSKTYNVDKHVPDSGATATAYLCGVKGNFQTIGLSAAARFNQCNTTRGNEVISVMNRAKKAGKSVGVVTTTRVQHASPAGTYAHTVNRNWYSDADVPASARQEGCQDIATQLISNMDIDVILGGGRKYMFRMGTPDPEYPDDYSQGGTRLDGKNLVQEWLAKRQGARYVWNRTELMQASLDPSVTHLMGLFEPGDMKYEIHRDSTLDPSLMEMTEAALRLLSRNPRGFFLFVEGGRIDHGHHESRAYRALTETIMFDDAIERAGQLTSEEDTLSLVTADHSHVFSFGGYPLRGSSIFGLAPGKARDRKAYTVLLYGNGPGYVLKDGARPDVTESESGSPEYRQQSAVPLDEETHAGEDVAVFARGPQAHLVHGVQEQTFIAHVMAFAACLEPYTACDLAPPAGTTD

Legend:
TNAP [1] = biological target: T1, TNAP (Homo sapiens, UniProt P05186); assay: TNAP luminescent assay (CDP-star substrate, 100 mM DEA); type: biochemical
T1 construct: made in house; host or cells: COS-1 cells, transient expression; dialyzed serum-free conditioned medium
T1 sequence (P05186 18-501 limits assumed): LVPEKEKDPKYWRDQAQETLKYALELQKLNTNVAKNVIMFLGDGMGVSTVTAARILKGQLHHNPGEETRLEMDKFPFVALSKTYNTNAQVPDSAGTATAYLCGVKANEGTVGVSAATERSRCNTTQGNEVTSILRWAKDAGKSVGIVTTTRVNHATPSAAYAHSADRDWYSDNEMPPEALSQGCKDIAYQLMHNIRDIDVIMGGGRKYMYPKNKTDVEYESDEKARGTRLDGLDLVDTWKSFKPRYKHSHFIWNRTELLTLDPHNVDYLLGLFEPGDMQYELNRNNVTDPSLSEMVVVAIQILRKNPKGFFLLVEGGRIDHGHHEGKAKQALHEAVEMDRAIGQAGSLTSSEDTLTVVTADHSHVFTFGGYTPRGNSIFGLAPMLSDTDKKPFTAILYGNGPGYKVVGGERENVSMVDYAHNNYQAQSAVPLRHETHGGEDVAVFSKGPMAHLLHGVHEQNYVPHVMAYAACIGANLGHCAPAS

TNAP [2] = biological target: T1, TNAP; parameters: method as in PMID 19556612; details: three DEA concentrations tested; cited from earlier work
TNAP [3] = biological target: T1, TNAP; assay: TNAP colorimetric malachite green phosphate detection (MG) assay; type: biochemical
TNAP [4] = biological target: T1, TNAP; assay: TNAP colorimetric assay (pNPP substrate, OD405, 1M DEA); type: biochemical
human PLAP = biological target: T2, human PLAP (Homo sapiens, UniProt P05187); assay: PLAP luminescent assay (CDP-star); type: biochemical; details: catechol series
T2 construct: made in house; host or cells: COS-1 cells, transient expression; dialyzed serum-free conditioned medium
Excerpt: Selectivity of Primary Actives Against other Phosphatases: To assess the selectivity of compounds across the alkaline phosphatase family, luminescent assays were developed for human PLAP and human IAP with the same CDP-Star reagent. As mentioned above, the PLAP selectivity assay (PubChem AID 1512) was implemented as an integral part of the hit optimization process. For lead characterization, we added a luminescent assay for IAP (PubChem AID 1017) to the selectivity panel. The selectivity data for the best representatives of the scaffolds, obtained at our screening center (CPCCG) and extracted from the PubChem database, are summarized in Table 4.
Development of the novel luminescent TNAP assay using CDP-star substrate and detailed protocol of its application for HTS is described in more detail elsewhere. […] Briefly, the assay was 50 μM CDP-star substrate in assay buffer containing 100 mM DEA-HCl (pH 9.8), 1 mM MgCl2, and 20 μM ZnCl2. The luminescence signal was measured after a 30-min incubation at room temperature on an EnVision plate reader (PerkinElmer, Waltham, MA). […] Detailed protocols can be found in the respective AIDs, however, the final buffer conditions were 100 mM DEA, pH 9.8, 1.0 mM MgCl2, 0.02 mM ZnCl2 for both PLAP and IAP.

Row | SMILES | average Hill coefficient, luminescent assay (TNAP [1]) | mode of TNAP inhibition versus the phosphate accepting substrate (DEA) (TNAP [1]) | mode of TNAP inhibition versus the phosphate donating substrate (CDP-star or pNPP) (TNAP [1]) | mechanism of TNAP inhibition with respect to DEA (TNAP [2]) | average Hill coefficient, colorimetric phosphate-release assay (TNAP [3]) | average Hill coefficient, colorimetric p-nitrophenol release assay (TNAP [4]) | pIC50 (human PLAP)
1 | COc1ccc(OC)c(S(=O)(=O)Nc2cnc3ccccc3c2)c1 [MLS-0038949] | 1.12 | non-competitive | uncompetitive | noncompetitive | 0.99 | 1.02 | –
2 | Cc1cc(C)nc(SCC(=O)c2ccc(O)c(O)c2)n1 [MLS-0315687] | – | – | – | – | – | – | 5.60

pIC50: −log10 of the molar value.
